Values quoted from earlier work in patent US6017932A, “Pharmaceutical compositions containing at least one NSAID having increased bioavailability” (priority 1996, dated 2000).

System: COX-II
Conditions: vs COX-I; cited from earlier work

CS(=O)(=O)Nc1cc2c(cc1Oc1ccc(F)cc1F)C(=O)CC2 [Flosulide]
COX-II selectivity (in words): selectively inhibit the detrimental COX-II
